# Measurements: publication PMC6321168, “Comparative Study on Excretive Characterization of Main Components in Herb Pair Notoginseng-Safflower and Single Herbs by LC–MS/MS” (Pharmaceutics, 2018)
# Experiment: Urinary excretion study in rats after oral NS, SF or CNS (LC–MS/MS)
# Type: in vivo
# Settings: for Accumulative excretion amount / Accumulative excretion percentage / Concentration / Excretion amount: rat urine
# Procedure: The animal room was set at constant temperature of 20 ± 2 °C with humidity of 50 ± 20% and 12/12 h light/dark cycle.
# Eighteen male rats were fasted for 12 h before starting the experiment. The rats were divided into three groups at random (n = 6) and received NS (60 mg/kg), SF (50 mg/kg), and NS (60 mg/kg) + SF (50 mg/kg), respectively, by oral gavage. The rats were placed in separate metabolic cages. The urine samples were collected at 0–2, 2–4, 4–6, 6–8, 8–12, 12–24, 24–36, 36–48, 48–72, 72–96, and 96–120 h. The feces samples were collected at 0–4, 4–8, 8–12, 12–24, 24–36, 36–48, 48–72, 72–96, and 96–120 h. The urine volume was recorded and the dry feces were measured for each collection period. Samples were stored at −80 °C until analysis.
# An aliquot of 200 μL urine sample was mixed with 10 μL of IS and evaporated to dryness with a ZLS-2 vacuum centrifugal concentrator (Herexi Co., Ltd., Changsha, Hunan, China). The residue was reconstituted in 100 μL of 50% methanol vortexed for 2 min and centrifuged at 12,000 rpm for 15 min. Finally, a 1 μL aliquot was injected for LC–MS analysis.
# Ultra fast liquid chromatography (UFLC) analysis was performed using a Shimadzu UFLC system (DGU-20A3R Degasser; LC-20AD pump; SIL-20AXR Autosampler; CTO-20AC Column Oven) (Nakagyo-Ku, Koyoto, Japan). […] Because of the different endogenous substances in the urine and feces samples, different elution gradients were used to alleviate the matrix effects for the analytes.
# The mass spectrometric detection was performed on an ABSciex 4500 Qtrap mass spectrometer (ABSciex, Foster City, CA, USA) equipped with a negative electrospray ionization (ESI) interface using multiple reaction monitoring (MRM). The MS parameters were optimized under the selected ion monitoring conditions as follows: curtain gas, 35 psi; ionspray voltage, 4500 V; turbo gas temperature, 450 °C; GS1, 45 psi; GS2, 45 psi. All data were acquired and analyzed by Analyst software (Versions 1.6.2) from ABSciex.
# The accumulative excretion percentage was calculated for each analyte as follows. Excretion at time (t) = [concentration of the analyte (ng/mL) at t] × total urine (or feces) volume (mL) at t. The cumulative excretion up to time t (mg) was expressed as a percent (%) cumulative excretion by dividing by the total amount of the analyte ingested (mg): % Cumulative Excretion = 100 × (Σt excretiont) total ingested.
substance,measurement,setting,value
hydroxysafflor yellow A [HSYA],Accumulative excretion amount,"oral CNS 110 mg/kg, 2 h",4.713 ± 3.816 µg
same,Accumulative excretion percentage,"oral CNS 110 mg/kg, 2 h",0.473±0.387%
same,Concentration,"oral CNS 110 mg/kg, 2 h",3367 ± 3471 ng/mL
same,Excretion amount,"oral CNS 110 mg/kg, 2 h",4.713 ± 3.816 µg
same,Accumulative excretion amount,"oral CNS 110 mg/kg, 4 h",9.054 ± 2.878 µg
same,Accumulative excretion percentage,"oral CNS 110 mg/kg, 4 h",0.902±0.288%
same,Concentration,"oral CNS 110 mg/kg, 4 h",4299 ± 4350 ng/mL
same,Excretion amount,"oral CNS 110 mg/kg, 4 h",5.787 ± 2.672 µg
same,Accumulative excretion amount,"oral CNS 110 mg/kg, 6 h",11.240 ± 2.799 µg
same,Accumulative excretion percentage,"oral CNS 110 mg/kg, 6 h",1.111±0.284%
same,Concentration,"oral CNS 110 mg/kg, 6 h",1851 ± 1081 ng/mL
same,Excretion amount,"oral CNS 110 mg/kg, 6 h",2.915 ± 1.407 µg
same,Accumulative excretion amount,"oral CNS 110 mg/kg, 8 h",13.469 ± 5.034 µg
same,Accumulative excretion percentage,"oral CNS 110 mg/kg, 8 h",1.332±0.503%
same,Concentration,"oral CNS 110 mg/kg, 8 h",2374 ± 2051 ng/mL
same,Excretion amount,"oral CNS 110 mg/kg, 8 h",3.567 ± 3.630 µg
same,Accumulative excretion amount,"oral CNS 110 mg/kg, 12 h",16.481 ± 6.950 µg
same,Accumulative excretion percentage,"oral CNS 110 mg/kg, 12 h",1.634±0.696%
same,Concentration,"oral CNS 110 mg/kg, 12 h",4148 ± 6221 ng/mL
same,Excretion amount,"oral CNS 110 mg/kg, 12 h",3.442 ± 2.613 µg
same,Accumulative excretion amount,"oral CNS 110 mg/kg, 24 h",18.044 ± 7.031 µg
same,Accumulative excretion percentage,"oral CNS 110 mg/kg, 24 h",1.783±0.701%
same,Concentration,"oral CNS 110 mg/kg, 24 h",453 ± 548 ng/mL
same,Excretion amount,"oral CNS 110 mg/kg, 24 h",1.562 ± 1.307 µg
same,Accumulative excretion amount,"oral CNS 110 mg/kg, 36 h",18.373 ± 7.165 µg
same,Accumulative excretion percentage,"oral CNS 110 mg/kg, 36 h",1.821±0.715%
same,Concentration,"oral CNS 110 mg/kg, 36 h",198 ± 296 ng/mL
same,Excretion amount,"oral CNS 110 mg/kg, 36 h",0.340 ± 0.319 µg
same,Accumulative excretion amount,"oral CNS 110 mg/kg, 48 h",18.568 ± 7.270 µg
same,Accumulative excretion percentage,"oral CNS 110 mg/kg, 48 h",1.841±0.726%
same,Concentration,"oral CNS 110 mg/kg, 48 h",39 ± 42 ng/mL
same,Excretion amount,"oral CNS 110 mg/kg, 48 h",0.195 ± 0.178 µg
same,Accumulative excretion amount,"oral CNS 110 mg/kg, 72 h",18.701 ± 7.480 µg
same,Accumulative excretion percentage,"oral CNS 110 mg/kg, 72 h",1.857±0.748%
same,Concentration,"oral CNS 110 mg/kg, 72 h",66 ± 139 ng/mL
same,Excretion amount,"oral CNS 110 mg/kg, 72 h",0.133 ± 0.278 µg
same,Accumulative excretion amount,"oral CNS 110 mg/kg, 96 h",18.763 ± 7.536 µg
same,Accumulative excretion percentage,"oral CNS 110 mg/kg, 96 h",1.864±0.759%
same,Concentration,"oral CNS 110 mg/kg, 96 h",31 ± 45 ng/mL
same,Excretion amount,"oral CNS 110 mg/kg, 96 h",0.062 ± 0.089 µg
same,Accumulative excretion amount,"oral CNS 110 mg/kg, 120 h",18.804 ± 7.544 µg
same,Accumulative excretion percentage,"oral CNS 110 mg/kg, 120 h",1.864±0.756%
same,Concentration,"oral CNS 110 mg/kg, 120 h",57 ± 114 ng/mL
same,Excretion amount,"oral CNS 110 mg/kg, 120 h",0.041 ± 0.052 µg
same,Accumulative excretion amount,"oral SF 50 mg/kg, 2 h",6.268 ± 3.141 µg
same,Accumulative excretion percentage,"oral SF 50 mg/kg, 2 h",0.623±0.317%
same,Concentration,"oral SF 50 mg/kg, 2 h",1803 ± 870 ng/mL
same,Excretion amount,"oral SF 50 mg/kg, 2 h",6.268 ± 3.141 µg
same,Accumulative excretion amount,"oral SF 50 mg/kg, 4 h",13.148 ± 6.505 µg
same,Accumulative excretion percentage,"oral SF 50 mg/kg, 4 h",1.305±0.647%
same,Concentration,"oral SF 50 mg/kg, 4 h",4325 ± 2706 ng/mL
same,Excretion amount,"oral SF 50 mg/kg, 4 h",6.880 ± 4.592 µg
same,Accumulative excretion amount,"oral SF 50 mg/kg, 6 h",14.717 ± 5.303 µg
same,Accumulative excretion percentage,"oral SF 50 mg/kg, 6 h",1.465±0.527%
same,Concentration,"oral SF 50 mg/kg, 6 h",3381 ± 2681 ng/mL
same,Excretion amount,"oral SF 50 mg/kg, 6 h",5.139 ± 5.476 µg
same,Accumulative excretion amount,"oral SF 50 mg/kg, 8 h",15.809 ± 5.807 µg
same,Accumulative excretion percentage,"oral SF 50 mg/kg, 8 h",1.564± 0.573%
same,Concentration,"oral SF 50 mg/kg, 8 h",1310 ± 782 ng/mL
same,Excretion amount,"oral SF 50 mg/kg, 8 h",2.185 ± 1.420 µg
same,Accumulative excretion amount,"oral SF 50 mg/kg, 12 h",18.769 ± 6.103 µg
same,Accumulative excretion percentage,"oral SF 50 mg/kg, 12 h",1.861± 0.608%
same,Concentration,"oral SF 50 mg/kg, 12 h",864 ± 46 ng/mL
same,Excretion amount,"oral SF 50 mg/kg, 12 h",2.960 ± 2.5891 µg
same,Accumulative excretion amount,"oral SF 50 mg/kg, 24 h",27.211 ± 12.281 µg
same,Accumulative excretion percentage,"oral SF 50 mg/kg, 24 h",2.691±1.210%
same,Concentration,"oral SF 50 mg/kg, 24 h",825 ± 828 ng/mL
same,Excretion amount,"oral SF 50 mg/kg, 24 h",8.442 ± 8.803 µg
same,Accumulative excretion amount,"oral SF 50 mg/kg, 36 h",28.075 ± 12.431 µg
same,Accumulative excretion percentage,"oral SF 50 mg/kg, 36 h",2.782± 1.235%
same,Concentration,"oral SF 50 mg/kg, 36 h",201 ± 136 ng/mL
same,Excretion amount,"oral SF 50 mg/kg, 36 h",0.864 ± 0.722 µg
same,Accumulative excretion amount,"oral SF 50 mg/kg, 48 h",28.344 ± 12.378 µg
same,Accumulative excretion percentage,"oral SF 50 mg/kg, 48 h",2.809±1.228%
same,Concentration,"oral SF 50 mg/kg, 48 h",50 ± 46 ng/mL
same,Excretion amount,"oral SF 50 mg/kg, 48 h",0.269 ± 0.285 µg
same,Accumulative excretion amount,"oral SF 50 mg/kg, 72 h",28.470 ± 12.357 µg
same,Accumulative excretion percentage,"oral SF 50 mg/kg, 72 h",2.822±1.220%
same,Concentration,"oral SF 50 mg/kg, 72 h",22 ± 14 ng/mL
same,Excretion amount,"oral SF 50 mg/kg, 72 h",0.126 ± 0.043 µg
same,Accumulative excretion amount,"oral SF 50 mg/kg, 96 h",28.501 ± 12.334 µg
same,Accumulative excretion percentage,"oral SF 50 mg/kg, 96 h",2.822±1.225%
same,Concentration,"oral SF 50 mg/kg, 96 h",18 ± 19 ng/mL
same,Excretion amount,"oral SF 50 mg/kg, 96 h",0.031 ± 0.038 µg
same,Accumulative excretion amount,"oral SF 50 mg/kg, 120 h",28.562 ± 12.270 µg
same,Accumulative excretion percentage,"oral SF 50 mg/kg, 120 h",2.837±1.216%
same,Concentration,"oral SF 50 mg/kg, 120 h",35 ± 45 ng/mL
same,Excretion amount,"oral SF 50 mg/kg, 120 h",0.070 ± 0.091 µg
same,cumulative excretion ratio in urine,"rats, oral CNS 110 mg/kg, within 120 h",1.86%
same,cumulative excretion ratio in urine,"rats, oral SF 50 mg/kg, within 120 h",2.83%
same,cumulative urinary excretion ratio in the CNS group comparing with the SF group,"rats, within 120 h",0.66 times
